This series deals with immature Sprague Dawley rats, castrated, testosterone-stimulated genitals and levator ani muscle. The settings on record: rat, in vivo, 200 mg/kg/day.

In the case of `CN(C)Cc1ccc(CSCCNC(=O)c2cccc(NS(=O)(=O)c3ccccc3)c2)o1` [CM 57888, 3-benzenesulfonamido-N-[2-(5-dimethylaminomethylfuran-2-ylmethylthio)ethyl]benzamide], the “anti-androgenic and anti-anabolising activity” value is on record as “much lower than that of the reference compounds”.

For the origin of these results see patent US4439444A, “Amidobenzamides, their salts and pharmaceutical compositions containing them” (Sanofi, priority 1981, dated 1984).
